Consider 2 molecules from article PMC7348096.

The chains behind the UniProt entries cited, without tags or fusion partners. Where a name states a change or a piece, a line headed by the entry shows the natural chain unless it says otherwise. Residues count along the entry.
UniProt P35372, whole entry: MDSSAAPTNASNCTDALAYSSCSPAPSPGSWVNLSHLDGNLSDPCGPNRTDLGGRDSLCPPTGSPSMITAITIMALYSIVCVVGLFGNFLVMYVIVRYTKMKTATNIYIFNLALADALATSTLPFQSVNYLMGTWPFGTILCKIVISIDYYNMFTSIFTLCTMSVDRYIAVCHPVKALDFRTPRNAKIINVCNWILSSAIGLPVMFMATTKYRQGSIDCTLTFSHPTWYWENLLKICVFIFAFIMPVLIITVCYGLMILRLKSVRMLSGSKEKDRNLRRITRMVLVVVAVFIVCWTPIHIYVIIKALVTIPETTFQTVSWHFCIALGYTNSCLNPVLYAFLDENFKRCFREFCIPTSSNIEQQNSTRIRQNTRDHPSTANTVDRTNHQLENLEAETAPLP
UniProt Q12879, 23-1464 limits assumed: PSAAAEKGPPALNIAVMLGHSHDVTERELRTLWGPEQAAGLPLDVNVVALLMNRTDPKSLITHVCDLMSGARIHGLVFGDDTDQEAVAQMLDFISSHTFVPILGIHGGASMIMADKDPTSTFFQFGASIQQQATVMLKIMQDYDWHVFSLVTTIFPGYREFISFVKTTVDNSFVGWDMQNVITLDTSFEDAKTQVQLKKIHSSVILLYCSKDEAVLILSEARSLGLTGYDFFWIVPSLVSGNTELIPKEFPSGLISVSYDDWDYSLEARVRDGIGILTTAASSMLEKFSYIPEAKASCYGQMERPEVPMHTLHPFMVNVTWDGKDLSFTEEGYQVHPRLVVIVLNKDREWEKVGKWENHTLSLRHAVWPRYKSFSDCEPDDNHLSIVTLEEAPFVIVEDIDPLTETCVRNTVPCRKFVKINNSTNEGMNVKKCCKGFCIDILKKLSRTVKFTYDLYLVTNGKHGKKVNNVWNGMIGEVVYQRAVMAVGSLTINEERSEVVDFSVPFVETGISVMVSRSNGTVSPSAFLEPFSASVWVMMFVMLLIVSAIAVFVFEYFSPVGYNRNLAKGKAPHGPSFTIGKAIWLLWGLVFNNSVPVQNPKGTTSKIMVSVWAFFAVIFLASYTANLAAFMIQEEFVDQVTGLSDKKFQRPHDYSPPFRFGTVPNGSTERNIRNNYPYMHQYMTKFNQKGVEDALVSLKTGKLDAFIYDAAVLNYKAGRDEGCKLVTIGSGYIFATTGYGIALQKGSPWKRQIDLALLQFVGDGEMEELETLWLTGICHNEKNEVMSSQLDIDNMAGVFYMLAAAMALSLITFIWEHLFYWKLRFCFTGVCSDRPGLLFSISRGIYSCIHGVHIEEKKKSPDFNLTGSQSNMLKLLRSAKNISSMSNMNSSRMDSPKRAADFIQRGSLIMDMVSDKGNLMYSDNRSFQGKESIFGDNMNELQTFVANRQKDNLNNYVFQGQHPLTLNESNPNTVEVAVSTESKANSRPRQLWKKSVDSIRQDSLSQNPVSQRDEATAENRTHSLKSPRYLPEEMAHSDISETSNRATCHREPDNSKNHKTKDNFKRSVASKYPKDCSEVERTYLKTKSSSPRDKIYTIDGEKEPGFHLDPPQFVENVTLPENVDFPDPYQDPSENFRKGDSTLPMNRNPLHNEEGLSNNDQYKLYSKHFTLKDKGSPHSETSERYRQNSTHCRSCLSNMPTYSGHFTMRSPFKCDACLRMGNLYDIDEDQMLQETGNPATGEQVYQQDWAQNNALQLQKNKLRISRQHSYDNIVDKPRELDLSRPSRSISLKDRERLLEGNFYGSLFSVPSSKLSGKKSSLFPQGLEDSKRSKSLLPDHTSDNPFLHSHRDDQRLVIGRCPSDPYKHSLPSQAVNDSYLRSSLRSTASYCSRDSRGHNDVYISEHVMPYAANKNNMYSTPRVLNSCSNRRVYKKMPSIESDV

The target in experiment [1] is T1, human μ receptors (Homo sapiens, UniProt P35372). Put plainly: GloSensor cAMP accumulation assay. As to conditions: concentrations up to 100 μM. In general terms: Changes in cAMP serve as a functional read-out for many G protein-coupled receptors.
The next experiment concerns the target GluN1/N2A NMDA receptors (Homo sapiens, UniProt Q05586+Q12879). Description: Intracellular Ca2+ imaging (Fura‐2) of NMDA/glycine evoked responses in Ltk‐ cells. As to conditions: 30 μM NMDA + 50 μM glycine; memantine 10 μM, MT‐45, M1, M17 30 μM pre‐applied; paired t‐test.
In experiment [2] the target is T1, human μ receptors. Description: PathHunter β‐arrestin2 recruitment assay. As to conditions: concentrations up to 100 μM.

Structures are written as SMILES.

For `C1CCC(N2CCNCC2)CC1`, the “efficacy in reducing cAMP accumulation” value on human μ receptors [1] is given as “very modest efficacy”. Further, the “effect on amplitude of NMDA and glycine induced intracellular Ca2+ response” value on GluN1/N2A NMDA receptors was “no statistically significant change”. Besides, the “efficacy in β‐arrestin2 recruitment” value on human μ receptors [2] is given as “Neither compound showed any efficacy”.
Turning to `CC12CC3CC(C)(C1)CC(N)(C3)C2`, the “effect on amplitude of NMDA and glycine induced intracellular Ca2+ response” value at GluN1/N2A NMDA receptors is given as “reduced the amplitude”.
